Assays:
[1] = target: mammalian mononucleosomes (HEK293T, MNase digestion) read out by the histone H3 peptide H3K79me1 (human) (UniProt P68431); test: MBP-SSX1 78aa pull-down of HEK293T mononucleosomes, targeted quantitative histone mass spectrometry; replicate MM04_D01
[2] = target: mammalian mononucleosomes (HEK293T, MNase digestion) read out by the histone H3 peptide H3K79me2 (human) (UniProt P68431); test: as above
[3] = target: mammalian mononucleosomes (HEK293T, MNase digestion) read out by the histone H3 peptide H3K56me0 (human) (UniProt P68431); test: as above
[4] = target: H4(4to17)K5ac1K8ac1K12ac1me0 histone form in mammalian mononucleosomes from HEK-293T cells (mammalian (HEK-293T cells)) (UniProt P62805); test: MBP-SSX1 78aa pull-down of HEK293T mononucleosomes, targeted histone MS, sample MM05_E01
[5] = target: H4(4to17)K5ac1K8ac1K12ac1K16ac1me0 histone form in mammalian mononucleosomes from HEK-293T cells (mammalian (HEK-293T cells)) (UniProt P62805); test: as above
[6] = target: H4(4to17)K16ac1me0 histone form in mammalian mononucleosomes from HEK-293T cells (mammalian (HEK-293T cells)) (UniProt P62805); test: as above
[7] = target: H4(20to23)K20me1 histone form in mammalian mononucleosomes from HEK-293T cells (mammalian (HEK-293T cells)) (UniProt P62805); test: as above
[8] = target: H2A(4to11)K9ac1 histone form in mammalian mononucleosomes from HEK-293T cells (mammalian (HEK-293T cells)) (UniProt P0C0S8); test: as above
[9] = target: H4(4to17)K12ac1me0 histone form in mammalian mononucleosomes from HEK-293T cells (mammalian (HEK-293T cells)) (UniProt P62805); test: as above
[10] = target: H4(4to17)K5ac1K8ac1me0 histone form in mammalian mononucleosomes from HEK-293T cells (mammalian (HEK-293T cells)) (UniProt P62805); test: as above
[11] = target: H2A(12to17)K13ac1 histone form in mammalian mononucleosomes from HEK-293T cells (mammalian (HEK-293T cells)) (UniProt P0C0S8); test: as above
[12] = target: H4(4to17)K5ac1K8ac1K16ac1me0 histone form in mammalian mononucleosomes from HEK-293T cells (mammalian (HEK-293T cells)) (UniProt P62805); test: as above
[13] = target: H2A(12to17)K15ac1 histone form in mammalian mononucleosomes from HEK-293T cells (mammalian (HEK-293T cells)) (UniProt P0C0S8); test: as above
[14] = target: H3K4me2 histone form in mammalian mononucleosomes from HEK-293T cells (mammalian (HEK-293T cells)) (UniProt P68431); test: as above
[15] = target: H3K4me3 histone form in mammalian mononucleosomes from HEK-293T cells (mammalian (HEK-293T cells)) (UniProt P68431); test: as above
[16] = target: H2A(4to11)ac0 histone form in mammalian mononucleosomes from HEK-293T cells (mammalian (HEK-293T cells)) (UniProt P0C0S8); test: as above
[17] = target: H2A(4to11)K5ac1K9ac1 histone form in mammalian mononucleosomes from HEK-293T cells (mammalian (HEK-293T cells)) (UniProt P0C0S8); test: as above
[18] = target: H2A(4to11)K5ac1 histone form in mammalian mononucleosomes from HEK-293T cells (mammalian (HEK-293T cells)) (UniProt P0C0S8); test: as above
[19] = target: H3K9me3S10ph1K14ac0 histone form in mammalian mononucleosomes from HEK-293T cells (mammalian (HEK-293T cells)) (UniProt P68431); test: as above
[20] = target: H4(4to17)K5ac1me0 histone form in mammalian mononucleosomes from HEK-293T cells (mammalian (HEK-293T cells)) (UniProt P62805); test: as above
[21] = target: H4(4to17)K8ac1K12ac1K16ac1me0 histone form in mammalian mononucleosomes from HEK-293T cells (mammalian (HEK-293T cells)) (UniProt P62805); test: as above
[22] = target: H2AZ(1to19)ac0 histone form in mammalian mononucleosomes from HEK-293T cells (mammalian (HEK-293T cells)) (UniProt P0C0S5); test: as above

## MBP-SSX1 (78aa) (from UniProt P0AEX9 27-392)
[1]
  log2 histone peptide abundance (light/heavy) in the pull-down, normalised to the average of the pull-down input controls: 0.617 log2 ratio
[2]
  log2 histone peptide abundance (light/heavy) in the pull-down, normalised to the average of the pull-down input controls: 0.352 log2 ratio
[3]
  log2 histone peptide abundance (light/heavy) in the pull-down, normalised to the average of the pull-down input controls: 0.742 log2 ratio
[4]
  log2 normalized (Light/Heavy) intensity ratio: -0.27 log2
[5]
  log2 normalized (Light/Heavy) intensity ratio: 0.245 log2
[6]
  log2 normalized (Light/Heavy) intensity ratio: -0.337 log2
[7]
  log2 normalized (Light/Heavy) intensity ratio: -0.443 log2
[8]
  log2 normalized (Light/Heavy) intensity ratio: -0.375 log2
[9]
  log2 normalized (Light/Heavy) intensity ratio: -0.275 log2
[10]
  log2 normalized (Light/Heavy) intensity ratio: 0.094 log2
[11]
  log2 normalized (Light/Heavy) intensity ratio: -0.047 log2
[12]
  log2 normalized (Light/Heavy) intensity ratio: 0.311 log2
[13]
  log2 normalized (Light/Heavy) intensity ratio: -0.086 log2
[14]
  log2 normalized (Light/Heavy) intensity ratio: 0.532 log2
[15]
  log2 normalized (Light/Heavy) intensity ratio: 0.505 log2
[16]
  log2 normalized (Light/Heavy) intensity ratio: 0.061 log2
[17]
  log2 normalized (Light/Heavy) intensity ratio: -0.049 log2
[18]
  log2 normalized (Light/Heavy) intensity ratio: 0.624 log2
[19]
  log2 normalized (Light/Heavy) intensity ratio: -1.03 log2
[20]
  log2 normalized (Light/Heavy) intensity ratio: 0.075 log2
[21]
  log2 normalized (Light/Heavy) intensity ratio: 0.625 log2
[22]
  log2 normalized (Light/Heavy) intensity ratio: -0.697 log2

Reference: patent US20250283871A1, “COMPOSITIONS AND METHODS FOR MODULATING THE INTERACTION BETWEEN SS18-SSX FUSION ONCOPROTEIN AND NUCLEOSOMES” (Dana-Farber Cancer Institute, Inc., priority 2020, published 2025)
